# pIC50: −log10 of the molar value. Like-named read-outs stand apart in the source and are kept apart here. Marks after values point to notes of the source that are not given here.
# How the values were obtained:
# DRB1*0101 = DRB1*0101 (Homo sapiens, UniProt P01903+P01911, A100R/D57E/F55L/F60I/F76Y/I96L/L162R/M171V/P40L/Q125E/R42F/V115G/Y59C); experiment: biochemical
# DRB1*1501 = biological target: T1, DRB1*1501 (Homo sapiens, UniProt P01903+P01911); experiment: competition-based HLA binding assay; conditions: competition with biotin-MBP 84–102 at 0.5 μM, 24 h, 37°C; NB = non-binder
# T1 construct: gift: William Kwok, Benaroya Institute, Seattle
# DRB1*0701 [1] = biological target: T2, DRB1*0701 (Homo sapiens, UniProt P01903+P01911, A100R/A102G/A103Q/D57E/D86V/E43K/F76Y/K127E/L162R/M171V/P40G/Q125H/Q99D/R33Q/R42Y/R54Q/S133A/S66F/T210M/V115G/Y107V/Y59L/Y89S); experiment: biochemical
# DRB1*0401 [2] = biological target: T3, DRB1*0401 (Homo sapiens, UniProt P01903+P01911, A100K/A169T/F76Y/I96L/K127E/L162R/M171V/N62H/P40V/Q125Y/R42H/S133A/S149N/S66Y/V115G/V209L/W38E); experiment: biochemical
# DRB1*0701 [3] = biological target: T2, DRB1*0701; conditions: read-out: DRB1*0701 IC50; competition with biotin-Flu-HA 306–318 at 1 μM, 24 h, 37°C; NB = non-binder
# DRB1*0401 [4] = biological target: T3, DRB1*0401; conditions: read-out: DRB1*0401 IC50
# PBMC = experiment: two-step IFNγ ELISpot assay with human PBMC; type: cell-based; conditions: 7 d pre-culture with GAD65 peptide pool, 48 h restimulation, triplicate;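 further: background is unstimulated wells, counts given per 1 million cells, 200,000–250,000 cells per well, restimulated at 37°C, read by Zeiss plate reader, IL-2 and IL-7 fed during pre-culture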
# [5] = Negative Control 668 PBMC, Tregitope + (5 μg/mL each human Tregitopes 167 and 289)
# [6] = Negative Control 668 PBMC, Tregitope −
# [7] = Negative Control 669 PBMC, Tregitope + (5 μg/mL each human Tregitopes 167 and 289)
# [8] = Negative Control 669 PBMC, Tregitope −
# [9] = Negative Control 670 PBMC, Tregitope + (5 μg/mL each human Tregitopes 167 and 289)
# [10] = Negative Control 670 PBMC, Tregitope −
# [11] = Negative Control 672 PBMC, Tregitope + (5 μg/mL each human Tregitopes 167 and 289)
# [12] = Negative Control 672 PBMC, Tregitope −
# [13] = Negative Control 674 PBMC, Tregitope + (5 μg/mL each human Tregitopes 167 and 289)
# [14] = Negative Control 674 PBMC, Tregitope −
# [15] = Subject D1101H (T1D) PBMC, Tregitope + (5 μg/mL each human Tregitopes 167 and 289)
# [16] = Subject D1101H (T1D) PBMC, Tregitope −
# [17] = Subject D1104H (T1D) PBMC, Tregitope + (5 μg/mL each human Tregitopes 167 and 289)
# [18] = Subject D1104H (T1D) PBMC, Tregitope −
# [19] = Subject D1106H (T1D) PBMC, Tregitope + (5 μg/mL each human Tregitopes 167 and 289)
# [20] = Subject D1106H (T1D) PBMC, Tregitope −
compound,measurement,setting,value
CSCC[C@H](NC(=O)[C@H](CC(C)C)NC(=O)[C@H](CC(C)C)NC(=O)CNC(=O)CN)C(=O)N[C@@H](CO)C(=O)N[C@@H](CCCNC(=N)N)C(=O)N[C@@H](CCCCN)C(=O)N[C@@H](Cc1c[nH]cn1)C(=O)N[C@@H](CCCCN)C(=O)N[C@@H](Cc1c[nH]c2ccccc12)C(=O)N[C@@H](CCCCN)C(=O)N[C@@H](CC(C)C)C(=O)N[C@@H](CO)C(=O)NCC(=O)N[C@H](C(=O)N[C@@H](CCC(=O)O)C(=O)N[C@@H](CCCNC(=N)N)C(=O)N[C@@H](C)C(=O)N[C@@H](CC(N)=O)C(=O)N[C@@H](CO)C(=O)N[C@H](C(=O)N[C@H](C(=O)N[C@@H](Cc1c[nH]c2ccccc12)C(=O)O)[C@@H](C)O)C(C)C)C(C)C [GAD65_369–392],pIC50,DRB1*0101,4.79
same,pIC50,DRB1*1501,< 4.30
same,pIC50,DRB1*0701 [1],> 5.30
same,pIC50,DRB1*0401 [2],> 5.30
CC[C@H](C)[C@H](NC(=O)[C@H](CC(N)=O)NC(=O)[C@H](Cc1ccc(O)cc1)NC(=O)[C@H](CC(C)C)NC(=O)[C@@H](N)Cc1ccc(O)cc1)C(=O)N[C@H](C(=O)N[C@@H](CCCCN)C(=O)N[C@@H](CC(N)=O)C(=O)N[C@@H](CCCNC(=N)N)C(=O)N[C@@H](CCC(=O)O)C(=O)NCC(=O)N[C@@H](Cc1ccc(O)cc1)C(=O)N[C@@H](CCC(=O)O)C(=O)N[C@@H](CCSC)C(=O)N[C@H](C(=O)N[C@@H](Cc1ccccc1)C(=O)N[C@@H](CC(=O)O)C(=O)O)C(C)C)[C@@H](C)CC [GAD65_480–496],pIC50,DRB1*0101,> 5.30
same,pIC50,DRB1*1501,> 5.30
same,pIC50,DRB1*0701 [3],< 4.30
same,pIC50,DRB1*0401 [2],5.24
CC[C@H](C)[C@H](NC(=O)[C@H](Cc1ccc(O)cc1)NC(=O)[C@H](Cc1c[nH]c2ccccc12)NC(=O)[C@H](Cc1ccccc1)NC(=O)[C@H](CS)NC(=O)[C@@H](N)C(C)C)C(=O)N1CCC[C@H]1C(=O)N1CCC[C@H]1C(=O)N[C@@H](CO)C(=O)N[C@@H](CC(C)C)C(=O)N[C@@H](CCCNC(=N)N)C(=O)N[C@H](C(=O)N[C@@H](CC(C)C)C(=O)N[C@@H](CCC(=O)O)C(=O)N[C@@H](CC(=O)O)C(=O)O)[C@@H](C)O [GAD65_504–518],pIC50,DRB1*0101,4.02
same,pIC50,DRB1*1501,4.99
same,pIC50,DRB1*0701 [1],4.60
same,pIC50,DRB1*0401 [4],< 4.30
CSCC[C@H](NC(=O)[C@H](CCCNC(=N)N)NC(=O)[C@H](CCC(=O)O)NC(=O)[C@H](CCC(=O)O)NC(=O)[C@H](CC(N)=O)NC(=O)[C@H](CC(=O)O)NC(=O)[C@H](CCC(=O)O)NC(=O)[C@H](CC(C)C)NC(=O)[C@@H](NC(=O)[C@H](CCCNC(=N)N)NC(=O)[C@H](CC(C)C)NC(=O)[C@H](CO)NC(=O)[C@@H]1CCCN1)[C@@H](C)O)C(=O)N[C@@H](CO)C(=O)N[C@@H](CCCNC(=N)N)C(=O)O [GAD65_511–525],IFNγ ELISpot SFC over background,PBMC; [5],103 SFC over BG/10^6
same,IFNγ ELISpot SFC over background,PBMC; [6],138 SFC over BG/10^6
same,IFNγ ELISpot SFC over background,PBMC; [7],−17 * SFC over BG/10^6
same,IFNγ ELISpot SFC over background,PBMC; [8],13 SFC over BG/10^6
same,IFNγ ELISpot SFC over background,PBMC; [9],−79 SFC over BG/10^6
same,IFNγ ELISpot SFC over background,PBMC; [10],36 SFC over BG/10^6
same,IFNγ ELISpot SFC over background,PBMC; [11],113 SFC over BG/10^6
same,IFNγ ELISpot SFC over background,PBMC; [12],52 SFC over BG/10^6
same,IFNγ ELISpot SFC over background,PBMC; [13],24 SFC over BG/10^6
same,IFNγ ELISpot SFC over background,PBMC; [14],19 SFC over BG/10^6
same,IFNγ ELISpot SFC over background,"PBMC; Subject D1100H (T1D) PBMC, Tregitope + (5 μg/mL each human Tregitopes 167 and 289)",−44 * SFC over BG/10^6
same,IFNγ ELISpot SFC over background,"PBMC; Subject D1100H (T1D) PBMC, Tregitope −",186 SFC over BG/10^6
same,IFNγ ELISpot SFC over background,PBMC; [15],32 SFC over BG/10^6
same,IFNγ ELISpot SFC over background,PBMC; [16],36 SFC over BG/10^6
same,IFNγ ELISpot SFC over background,PBMC; [17],26 SFC over BG/10^6
same,IFNγ ELISpot SFC over background,PBMC; [18],6 SFC over BG/10^6
same,IFNγ ELISpot SFC over background,"PBMC; Subject D1105H (T1D) PBMC, Tregitope + (5 μg/mL each human Tregitopes 167 and 289)",−4 SFC over BG/10^6
same,IFNγ ELISpot SFC over background,"PBMC; Subject D1105H (T1D) PBMC, Tregitope −",2 SFC over BG/10^6
same,IFNγ ELISpot SFC over background,PBMC; [19],23 SFC over BG/10^6
same,IFNγ ELISpot SFC over background,PBMC; [20],54 SFC over BG/10^6
same,IFNγ ELISpot SFC over background,"PBMC; Subject D1107H (T1D) PBMC, Tregitope + (5 μg/mL each human Tregitopes 167 and 289)",−13 SFC over BG/10^6
same,IFNγ ELISpot SFC over background,"PBMC; Subject D1107H (T1D) PBMC, Tregitope −",18 SFC over BG/10^6
same,pIC50,DRB1*1501,< 4.30
CC(C)C[C@H](NC(=O)[C@H](Cc1ccccc1)NC(=O)[C@H](C)NC(=O)[C@H](Cc1ccc(O)cc1)NC(=O)[C@H](CC(N)=O)NC(=O)[C@@H](NC(=O)[C@@H](N)CC(=O)O)C(C)C)C(=O)N[C@@H](Cc1c[nH]cn1)C(=O)N[C@@H](C)C(=O)N[C@H](C(=O)N[C@@H](CC(=O)O)C(=O)N[C@@H](CC(C)C)C(=O)N[C@@H](CC(C)C)C(=O)N1CCC[C@H]1C(=O)N[C@@H](C)C(=O)N[C@@H](CS)C(=O)N[C@@H](CC(=O)O)C(=O)NCC(=O)O)[C@@H](C)O [GAD65_086–103],pIC50,DRB1*0101,> 5.30
same,pIC50,DRB1*1501,< 4.30
same,pIC50,DRB1*0701 [1],> 5.30
same,pIC50,DRB1*0401 [2],5.12
CSCC[C@H](NC(=O)[C@H](CC(=O)O)NC(=O)[C@H](CC(C)C)NC(=O)CNC(=O)[C@@H](NC(=O)[C@H](CO)NC(=O)[C@H](CC(C)C)NC(=O)[C@H](CCC(N)=O)NC(=O)[C@H](CC(N)=O)NC(=O)[C@H](Cc1ccccc1)NC(=O)[C@H](Cc1ccc(O)cc1)NC(=O)[C@H](CCCNC(=N)N)NC(=O)[C@@H]1CCCN1C(=O)[C@@H](N)Cc1c[nH]cn1)[C@@H](C)O)C(=O)N[C@H](C(=O)NCC(=O)O)C(C)C [GAD65_175–190],pIC50,DRB1*0101,4.97
same,pIC50,DRB1*1501,< 4.30
same,pIC50,DRB1*0701 [1],4.86
same,pIC50,DRB1*0401 [2],< 4.30
CSCC[C@H](NC(=O)[C@H](CC(C)C)NC(=O)CNC(=O)[C@H](CCC(=O)O)NC(=O)[C@H](CCC(=O)O)NC(=O)[C@H](CCCNC(=N)N)NC(=O)[C@@H](NC(=O)[C@H](CC(C)C)NC(=O)[C@H](CC(C)C)NC(=O)[C@H](C)NC(=O)[C@@H](N)CO)C(C)C)C(=O)N[C@@H](CCC(N)=O)C(=O)N[C@@H](CC(N)=O)C(=O)N[C@@H](CS)C(=O)N[C@@H](CC(N)=O)C(=O)N[C@@H](CCC(N)=O)C(=O)N[C@@H](CCSC)C(=O)N[C@@H](Cc1c[nH]cn1)C(=O)N[C@@H](C)C(=O)N[C@@H](CO)C(=O)O [GAD65_405–424],IFNγ ELISpot SFC over background,PBMC; [5],−8 ** SFC over BG/10^6
same,IFNγ ELISpot SFC over background,PBMC; [6],178 SFC over BG/10^6
same,IFNγ ELISpot SFC over background,PBMC; [7],13** SFC over BG/10^6
same,IFNγ ELISpot SFC over background,PBMC; [8],78 SFC over BG/10^6
same,IFNγ ELISpot SFC over background,PBMC; [9],−14 SFC over BG/10^6
same,IFNγ ELISpot SFC over background,PBMC; [10],49 SFC over BG/10^6
same,IFNγ ELISpot SFC over background,PBMC; [11],11 SFC over BG/10^6
same,IFNγ ELISpot SFC over background,PBMC; [12],−10 SFC over BG/10^6
same,IFNγ ELISpot SFC over background,PBMC; [13],26 SFC over BG/10^6
same,IFNγ ELISpot SFC over background,PBMC; [14],16 SFC over BG/10^6
same,IFNγ ELISpot SFC over background,PBMC; [15],56 SFC over BG/10^6
same,IFNγ ELISpot SFC over background,PBMC; [16],71 SFC over BG/10^6
same,IFNγ ELISpot SFC over background,PBMC; [17],64 SFC over BG/10^6
same,IFNγ ELISpot SFC over background,PBMC; [18],126 SFC over BG/10^6
same,IFNγ ELISpot SFC over background,PBMC; [19],365 SFC over BG/10^6
same,IFNγ ELISpot SFC over background,PBMC; [20],324 SFC over BG/10^6
same,pIC50,DRB1*1501,< 4.30
same,pIC50,DRB1*0401 [2],< 4.30

# — PMC3655598, “Application of IgG-Derived Natural Treg Epitopes (IgG Tregitopes) to Antigen-Specific Tolerance Induction in a Murine Model of Type 1 Diabetes” (Journal of Diabetes Research, 2013)
